# Literature values in patent publication US20100197962A1 (priority 2005, published 2010).
# Molecular target: glycine site (strychnine-insensitive) coupled to the NMDA receptor complex (Homo sapiens, UniProt Q05586)
# Conditions: Lanza et al. 1997; cited from earlier work
substance,measurement,value
"(S)-4-amino-N-(4,4-dimethylcyclohexyl)glutamic acid [Neboglamine]",modulatory properties on the glycine site coupled to the NMDA receptor complex,significant modulatory properties
